## Cyclic peptide permeability, from CycPeptMPDB

Data: CycPeptMPDB; original report Townsend et al. 2020, doi:10.26434/chemrxiv.13335941.v1.

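Lipid, pH, incubation time, direction and concentration are not recorded in the data file. The list need not hold all peptides of the study. Peptides that the database sets to -10, its floor, are left out.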

PAMPA is the parallel artificial membrane permeability assay, which has no cells and reads passive diffusion.
Permeability is in 10^-6 cm/s, converted from the database's log10 values; higher is more permeable.

compound	PAMPA (10^-6 cm/s)
CC(C)C[C@@H]1NC(=O)[C@@H]2CCCN2C(=O)[C@@H](CC(C)C)NC(=O)[C@H](CC(C)C)N(C)C(=O)[C@H](C)N(C)C(=O)[C@H]2CCCN2C(=O)[C@H](Cc2ccccc2)NC1=O	1.7
CC(C)C[C@H]1NC(=O)C[C@H](Cc2ccccc2)NC(=O)[C@H](Cc2ccccc2)NC(=O)[C@@H](CC(C)C)NC(=O)[C@@H]2CCCN2C(=O)C[C@H](Cc2ccccc2)NC1=O	1.9
CC(C)C[C@@H]1NC(=O)[C@@H]2CCCN2C(=O)[C@@H](CC(C)C)N(C)C(=O)[C@@H](CC(C)C)NC(=O)[C@H](C)NC(=O)[C@H](Cc2ccccc2)NC1=O	0.49
CC(C)C[C@@H]1C(=O)N[C@@H](Cc2ccccc2)C(=O)N2CCC[C@H]2C(=O)N(C)[C@H](C)C(=O)N[C@H](CC(C)C)C(=O)N(Cc2ccccc2)CC(=O)N2CCC[C@H]2C(=O)N1C	0.95
CC(C)C[C@@H]1NC(=O)[C@H](C)N(C)C(=O)[C@@H]2CCCN2C(=O)[C@H](Cc2ccccc2)NC(=O)[C@H](CC(C)C)N(C)C(=O)[C@H]2CCCN2C(=O)[C@@H](CC(C)C)NC1=O	3.4
CC(C)C[C@H]1NC(=O)[C@@H]2CCCN2C(=O)[C@@H](CC(C)C)NC(=O)CN(Cc2ccccc2)C(=O)[C@@H](C)N(C)C(=O)[C@H](Cc2ccccc2)NC1=O	8.5
CC(C)C[C@H]1NC(=O)[C@@H](C)NC(=O)[C@H](Cc2ccccc2)NC(=O)CN(Cc2ccccc2)C(=O)[C@H]2CCCN2C(=O)[C@@H](CC(C)C)NC1=O	0.19
CCCN1CC(=O)N[C@@H](CC(C)C)C(=O)N[C@H](CC(C)C)C(=O)N2CCC[C@@H]2C(=O)N[C@H](CC(C)C)C(=O)N[C@@H](Cc2ccccc2)C(=O)N2CCC[C@@H]2C1=O	1.5
CC(C)C[C@@H]1NC(=O)[C@@H](CC(C)C)NC(=O)C[C@H](Cc2ccccc2)NC(=O)[C@H](Cc2ccccc2)NC(=O)[C@@H](CC(C)C)NC(=O)[C@H]2CCCN2C1=O	9.3
CC(C)C[C@@H]1NC(=O)[C@H](CC(C)C)N(C)C(=O)C[C@H](Cc2ccccc2)NC(=O)[C@H]2CCCN2C(=O)[C@H](Cc2ccccc2)NC(=O)[C@@H](CC(C)C)NC(=O)[C@@H]2CCCN2C1=O	4.7
CCCN1CC(=O)N(Cc2ccccc2)CC(=O)N(C)[C@H](CC(C)C)C(=O)N2CCC[C@H]2C(=O)N[C@H](CC(C)C)C(=O)N[C@@H](Cc2ccccc2)C(=O)N2CCC[C@@H]2C1=O	2.5
CC(C)C[C@H]1NC(=O)[C@H]2CCCN2C(=O)[C@H](CC(C)C)N(C)C(=O)[C@@H](CC(C)C)NC(=O)[C@H](C)N(C)C(=O)[C@H]2CCCN2C(=O)[C@H](Cc2ccccc2)NC1=O	3.4
CC(C)C[C@@H]1NC(=O)[C@H](C)NC(=O)[C@H]2CCCN2C(=O)[C@H](Cc2ccccc2)NC(=O)[C@H](CC(C)C)N(C)C(=O)[C@H]2CCCN2C(=O)C[C@H](Cc2ccccc2)NC1=O	1.1
CCCN1CC(=O)N(C)[C@@H](CC(C)C)C(=O)N[C@@H](CC(C)C)C(=O)N2CCC[C@@H]2C(=O)N(Cc2ccccc2)CC(=O)N[C@@H](Cc2ccccc2)C(=O)N2CCC[C@@H]2C1=O	3.9
CC(C)C[C@@H]1NC(=O)[C@H](C)NC(=O)[C@@H]2CCCN2C(=O)[C@H](Cc2ccccc2)NC(=O)[C@@H](CC(C)C)N(C)C(=O)[C@@H]2CCCN2C(=O)[C@@H](CC(C)C)N(C)C1=O	1.8